{"sequences": {"note": "By UniProt entry, the sequences of proteins in these tests, tags left out. Residues count along the entry.", "UniProt P53634, 25-134 limits assumed": "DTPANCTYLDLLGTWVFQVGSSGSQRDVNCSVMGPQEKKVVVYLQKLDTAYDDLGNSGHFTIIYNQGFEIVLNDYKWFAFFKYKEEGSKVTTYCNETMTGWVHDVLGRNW", "UniProt P53634, 231-394 limits assumed": "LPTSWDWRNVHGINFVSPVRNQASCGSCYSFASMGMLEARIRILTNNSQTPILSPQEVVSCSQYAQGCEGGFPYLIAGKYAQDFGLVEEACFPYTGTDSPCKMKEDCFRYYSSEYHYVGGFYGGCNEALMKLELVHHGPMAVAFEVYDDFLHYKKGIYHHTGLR", "UniProt P53634, 395-463 limits assumed": "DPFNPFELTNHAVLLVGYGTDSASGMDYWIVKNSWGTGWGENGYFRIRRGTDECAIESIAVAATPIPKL"}, "source": "patent US20240150335A1", "about": "“FUSED RING DERIVATIVES CONTAINING 1,4-OXAZEPANE” (MEDSHINE DISCOVERY INC., priority 2021, published 2024)", "key": {"[1]": {"molecular_target": "Recombinant human cathepsin C/DPP1", "assay": "Inhibition effect test of DPP1 enzyme activity", "conditions": "read-out: IC50, inhibitory activity on DPP1 enzyme; recombinant human cathepsin C/DPP1, Gly-Arg-AMC substrate 12.5 μM, 25° C. 60 minutes"}, "DPP1 of U937 cells": {"molecular_target": "DPP1 of U937 cells (Homo sapiens (Human), UniProt P53634)", "assay": "Activity test of inhibiting DPP1 in U937 cells", "conditions": "read-out: IC50, inhibitory activity on DPP1 of U937 cells, Gly-Phe-AFC probe"}}}
{"smiles": "Cn1ccc2ncc(-c3ccc(CC(C#N)NC(=O)[C@@H]4CNCCCO4)c(F)c3)cc21", "note": "(some centres unmarked)", "values": [{"measurement": "IC50", "setting": "[1]", "value": 11.5, "unit": "nM"}, {"measurement": "IC50", "setting": "DPP1 of U937 cells", "value": 9.58, "unit": "nM"}]}
